# Measurements reported in PMC8596301 (Frontiers in Pharmacology, 2021).
# By UniProt entry, the sequences of proteins in these tests, tags left out. Where a name states a change or a piece, a line headed by the entry shows the natural chain unless it says otherwise.
# UniProt P41145: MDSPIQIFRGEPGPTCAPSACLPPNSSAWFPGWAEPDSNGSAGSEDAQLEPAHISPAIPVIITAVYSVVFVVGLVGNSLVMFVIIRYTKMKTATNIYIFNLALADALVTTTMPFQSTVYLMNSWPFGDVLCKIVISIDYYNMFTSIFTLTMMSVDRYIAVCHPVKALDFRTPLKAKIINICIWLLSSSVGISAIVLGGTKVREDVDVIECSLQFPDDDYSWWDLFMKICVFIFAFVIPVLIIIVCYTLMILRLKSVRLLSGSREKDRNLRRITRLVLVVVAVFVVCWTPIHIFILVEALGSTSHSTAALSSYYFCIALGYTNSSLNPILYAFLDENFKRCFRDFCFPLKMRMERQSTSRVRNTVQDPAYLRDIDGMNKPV
# Biological target: κOR (Homo sapiens, UniProt P41145)
# Assay: PathHunter β-arrestin-2 recruitment assay
# Assay type: cell-based
# Conditions: normalized to U50,488, ND = not detectable
compound,measurement,value
CN(C(=O)Cc1ccc(Cl)c(Cl)c1)[C@@H]1CCCC[C@H]1N1CCCC1,β-arrestin-2 α (efficacy),100
